Experimental findings from PubChem BioAssay AID2717 (Broad Institute, 2010) are described below.

This is a selection; strong and weak results do not stand in their true shares. The source made the active and inactive calls. No stated cut-off is given here; in the data, active means inhibition above about 75%; inconclusive means no clear call, values can overlap the other calls; inactive means below that; tested in HMLE shEcad cells.

The nature of the test: growth suppression of cancer stem-like cells – cell-based, luminescence, primary screen (AID 2717). The following applies: cancer stem cell-like cells viability, at 7.5 µM, hits give high values.
`COc1ccc(NC2CCN(CCc3ccccc3)CC2)c(OC)c1`: the inhibition is inactive: -0.747%.
With `CCOC(=O)N1CCC(Nc2ccc(F)cc2)CC1`, the inhibition was inactive: -12%.
The same measure for `O=C(NCC1(N2CCCCC2)CCCCC1)c1ccc(F)cc1`: inactive: -8.97%.
The same measure for `CCOc1ccc(C)cc1CN(CCCl)CCCl`: inactive: -4.62%; for `Cc1ccc(OCC(C)C)c(CN(CCCl)CCCl)c1`: inactive: -14%; for `CCOC(=O)N1CCC(Nc2cccc(C)c2)CC1`: inactive: 2.07%.
In the case of `COc1cc(C(=O)NCC2(N(C)C)CCCCC2)ccc1OC(F)F`, the inhibition is inactive: -10.5%.
For `Fc1ccccc1NC1CCN(Cc2ccccc2)CC1`, the inhibition was inactive: -6.38%.
The result for `Cc1ccc(C(=O)NCC2(N3CCCCC3)CCCCC2)o1` reads inactive: -4.16%; that for `COc1cc(OC)cc(C(=O)NCC2(N3CCCCC3)CCCCC2)c1`, inactive: 0.246%; that for `CN(C)c1ccc(C(=O)NCC2(N3CCCCC3)CCCCC2)cc1`, inactive: -2.63%.
The same measure for `CCN1CCC(Nc2cccc(F)c2)CC1`: inactive: -8.19%.
The same measure for `O=C(O)C1(Nc2ccccc2)CCN(Cc2ccccc2)CC1`: inactive: -5.8%; for `CC(C)(C)OC(=O)N1CCC(Nc2ccccc2)CC1`: inactive: -10.7%; for `CCCOc1ccc(C(=O)NCC2(N(C)C)CCCCC2)cc1`: inactive: -13.8%.
With `CN1CCC(Nc2ccc(F)c(Cl)c2)CC1`, the inhibition is inactive: 1.8%.
In the case of `CCOc1ncccc1C(=O)NCC1(N2CCOCC2)CCCCC1`, the inhibition was inactive: -7.04%.
The result for `CN1CCC(Nc2ccc(Cl)cc2)CC1` reads inactive: -7.25%; that for `CCCOc1ccc(C)cc1CN(CCCl)CCCl`, inactive: -13.3%.
For the compound `COc1cc(OC)cc(C(=O)NCC2(N3CCOCC3)CCCCC2)c1`, the inhibition is inactive: -9.5%.
As to `COc1cccc(C(=O)N(c2cc(C)cc(C)c2)C2CCN(C(=O)OC(C)(C)C)CC2)c1`, the inhibition was inactive: 5.52%.
In the case of `CCC(CO)(C(=O)OC1CN2CCC1CC2)c1ccccc1` (configuration not stated), the inhibition was inactive: 4.13%.
The result for `COc1ccc(C(=O)NCC2(N3CCOCC3)CCCCC2)cc1OC` reads inactive: -2.06%.
The result for `COc1cc(C(=O)NCC2(N3CCOCC3)CCCCC2)cc(OC)c1C` reads inactive: -9.13%; that for `CCc1cc(C(=O)NCC2(N3CCCCC3)CCCCC2)sc1C`, inactive: -1.08%; that for `CCOC(=O)N1CCC(Nc2ccc(C)cc2)CC1`, inactive: -14.6%.
The same measure for `N/C(=N\O)c1c(N)no[n+]1[O-]`: inactive: -3.82%; for `N#Cc1ccc(C(=O)NCC2(N3CCCCC3)CCCCC2)cc1`: inactive: -12.5%; for `CC(C)(C)OC(=O)N1CCC(N(C(=O)c2ccccc2)c2ccc(Cl)cc2)CC1`: inactive: -7.07%.
As to `CN(C)C1(CNC(=O)c2cccc(C#N)c2)CCCCC1`, the inhibition was inactive: 7.32%.
The same measure for `CCCN1CCC(Nc2cc(OC)cc(OC)c2)CC1`: inactive: -6.21%; for `c1ccc(CN2CCC(Nc3ccccc3)CC2)cc1`: inactive: 21.9%.
